Target: Mu-type opioid receptor (Rattus norvegicus) (UniProt P33535)
Test: Agonist activity at rat recombinant MOR expressed in rat C6 cells assessed as stimulation of [35S]GTPgammaS binding after 1 hr relative to DAMGO

Sequences of proteins named here, by UniProt entry; tags and fusion partners are left off.
UniProt P33535, whole entry: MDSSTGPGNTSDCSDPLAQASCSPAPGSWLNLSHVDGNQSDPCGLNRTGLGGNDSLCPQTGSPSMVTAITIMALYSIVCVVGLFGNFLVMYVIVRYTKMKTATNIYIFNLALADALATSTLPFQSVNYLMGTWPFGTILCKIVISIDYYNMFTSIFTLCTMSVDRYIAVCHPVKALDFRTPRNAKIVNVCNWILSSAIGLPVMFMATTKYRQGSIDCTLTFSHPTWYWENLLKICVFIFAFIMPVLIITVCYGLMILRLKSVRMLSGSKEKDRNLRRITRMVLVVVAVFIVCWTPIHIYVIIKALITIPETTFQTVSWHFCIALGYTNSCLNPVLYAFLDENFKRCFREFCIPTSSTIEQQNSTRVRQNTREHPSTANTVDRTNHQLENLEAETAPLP

Compound | Activity [%]
CO[C@]12CC[C@@]3(C[C@@H]1[C@@H](O)CC1CCCC1)[C@H]1Cc4ccc(O)c5c4[C@@]3(CCN1CC1CC1)[C@H]2O5 | 80
CO[C@]12CC[C@@]3(C[C@@H]1[C@@](C)(O)CCC1CCCCC1)[C@H]1Cc4ccc(O)c5c4[C@@]3(CCN1CC1CC1)[C@H]2O5 | 8.5
CO[C@]12C=C[C@@]3(C[C@@H]1[C@](C)(O)CCC(C)C)[C@H]1Cc4ccc(O)c5c4[C@@]3(CCN1CC1CC1)[C@H]2O5 | 34
CO[C@]12CC[C@@]3(C[C@@H]1[C@@H](O)CCC1CCCCC1)[C@H]1Cc4ccc(O)c5c4[C@@]3(CCN1CC1CC1)[C@H]2O5 | 34
CO[C@]12CC[C@@]3(C[C@@H]1[C@H](O)CCC1CCCCC1)[C@H]1Cc4ccc(O)c5c4[C@@]3(CCN1CC1CC1)[C@H]2O5 | 23
CO[C@]12CC[C@@]3(C[C@@H]1[C@](C)(O)CCC1CCCCC1)[C@H]1Cc4ccc(O)c5c4[C@@]3(CCN1CC1CC1)[C@H]2O5 | 43
CO[C@]12CC[C@@]3(C[C@@H]1[C@](C)(O)Cc1ccccc1)[C@H]1Cc4ccc(O)c5c4[C@@]3(CCN1CC1CC1)[C@H]2O5 | 75
CO[C@]12CC[C@@]3(C[C@@H]1[C@](C)(O)CCC(C)C)[C@H]1Cc4ccc(O)c5c4[C@@]3(CCN1CC1CC1)[C@H]2O5 | 33
